Measurements from BindingDB's records for doi:10.1016/j.bmc.2009.07.069 (Human Biomolecular Research Institute, 2009).

Amino acid sequences for entries named in this document (tags omitted).
UniProt P35372, whole entry: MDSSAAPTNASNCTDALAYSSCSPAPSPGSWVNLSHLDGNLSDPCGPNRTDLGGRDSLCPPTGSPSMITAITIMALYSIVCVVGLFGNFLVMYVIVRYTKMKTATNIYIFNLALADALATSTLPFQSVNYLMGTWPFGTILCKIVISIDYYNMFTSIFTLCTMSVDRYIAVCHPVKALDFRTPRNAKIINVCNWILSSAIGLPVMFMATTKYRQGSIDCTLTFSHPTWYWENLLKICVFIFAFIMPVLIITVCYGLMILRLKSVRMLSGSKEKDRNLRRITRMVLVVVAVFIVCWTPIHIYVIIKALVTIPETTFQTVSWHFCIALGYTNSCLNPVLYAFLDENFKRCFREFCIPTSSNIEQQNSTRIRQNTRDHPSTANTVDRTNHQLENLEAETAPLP

Molecular target: Mu-type opioid receptor (Homo sapiens, UniProt P35372)

**Q.** Which Ki does the source give for `O=C(N[C@@H]1CC[C@@]2(O)[C@H]3Cc4ccc(O)c5c4[C@@]2(CCN3CC2CC2)[C@H]1O5)c1ccc(Br)cc1` [17-Cyclopropylmethyl-3,14beta-dihydroxy-4,5alpha-epoxy-6beta-[(4'-bromo)benzamido]morphinan-oxalate] here?
**A.** The Ki was over 10 µM.
